Holding throughout (test): FOREST: bead pull-down of RNA structure library v1, barcode microarray; U1A/LIN28A: 20 mM HEPES pH 7.5, 80 mM KCl, 20 mM NaCl, 10% glycerol, 2 mM DTT, 0.1 ug/uL BSA, 4 C; BG4/CIRBP/DHX36: 10 mM Tris-HCl pH 7.5, 100 mM KCl (or LiCl),; high values mean tight binding
For test [1], the target named is U1A (Homo sapiens, UniProt P09012).
Test [2] deals with T1, LIN28A (human?, UniProt Q9H9Z2 1-209).
T1 sequence: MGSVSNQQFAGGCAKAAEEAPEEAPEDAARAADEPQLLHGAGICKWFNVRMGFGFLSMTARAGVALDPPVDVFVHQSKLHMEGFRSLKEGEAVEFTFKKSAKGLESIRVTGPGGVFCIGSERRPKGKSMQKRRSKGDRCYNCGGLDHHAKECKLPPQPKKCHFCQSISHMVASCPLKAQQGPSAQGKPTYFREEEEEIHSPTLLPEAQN

The target of test [3] is T2, CIRBP (Homo sapiens, UniProt Q14011 1-172).
T2 sequence: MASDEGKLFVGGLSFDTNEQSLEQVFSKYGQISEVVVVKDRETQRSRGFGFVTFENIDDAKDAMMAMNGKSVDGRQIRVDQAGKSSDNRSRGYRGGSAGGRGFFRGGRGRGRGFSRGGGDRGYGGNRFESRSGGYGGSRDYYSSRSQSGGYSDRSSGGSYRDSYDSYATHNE

Test [4] has as its target T3, DHX36 (Homo sapiens, UniProt Q9H2U1 1-1008).
T3 sequence: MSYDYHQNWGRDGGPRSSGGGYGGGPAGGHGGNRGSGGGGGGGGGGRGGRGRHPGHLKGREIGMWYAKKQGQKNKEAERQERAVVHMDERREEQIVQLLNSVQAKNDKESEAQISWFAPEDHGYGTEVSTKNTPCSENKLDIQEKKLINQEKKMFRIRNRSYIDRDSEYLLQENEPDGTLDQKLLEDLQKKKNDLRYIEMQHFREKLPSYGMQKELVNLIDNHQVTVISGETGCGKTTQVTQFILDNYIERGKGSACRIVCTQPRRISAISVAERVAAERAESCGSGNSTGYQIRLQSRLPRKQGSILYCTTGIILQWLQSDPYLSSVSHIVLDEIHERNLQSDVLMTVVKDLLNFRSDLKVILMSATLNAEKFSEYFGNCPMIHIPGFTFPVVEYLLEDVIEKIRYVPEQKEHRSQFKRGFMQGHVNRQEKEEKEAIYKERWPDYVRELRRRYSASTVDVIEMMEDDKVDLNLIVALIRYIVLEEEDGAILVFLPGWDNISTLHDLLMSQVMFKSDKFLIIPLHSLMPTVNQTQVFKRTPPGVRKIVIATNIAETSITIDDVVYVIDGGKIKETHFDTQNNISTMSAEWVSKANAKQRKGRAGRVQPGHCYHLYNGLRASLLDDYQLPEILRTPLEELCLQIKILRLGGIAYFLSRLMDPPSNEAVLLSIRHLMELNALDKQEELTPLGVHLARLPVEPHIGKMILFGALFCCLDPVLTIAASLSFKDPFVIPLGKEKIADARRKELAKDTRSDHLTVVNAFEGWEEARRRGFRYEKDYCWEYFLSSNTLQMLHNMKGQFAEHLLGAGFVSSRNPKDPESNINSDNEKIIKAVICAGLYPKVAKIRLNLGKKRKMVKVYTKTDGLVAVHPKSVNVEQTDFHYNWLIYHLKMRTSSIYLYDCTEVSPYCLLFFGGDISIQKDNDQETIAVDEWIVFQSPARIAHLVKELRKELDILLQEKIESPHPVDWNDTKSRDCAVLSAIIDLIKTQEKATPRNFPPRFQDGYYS

This is one part of the list.

B1: hsa-mir-6830 (structured_RNA)
RNA: GGGAGAUUGUGUCAACCGCUAGCCAUAAGGUGUACGAAGUUUCAGCGACAUCCCUCAUCUGUUUCUCACUGGUGUCGCUGAAGCUUCGUGCAC
For B1, the binding signal is 0.544 z-score in test [1], -0.398 z-score in test [2], 0.539 z-score in test [3] and -0.0247 z-score in test [4].

B2: hsa-mir-587 (structured_RNA)
RNA: GGGACAAGCGCAAAGAGGUAUAAAUUCUGGUGUACGAAGUUUCAGCUCACAGGGCUCAGGGAAUGUGUCUGCACCUGUGAGCUGAAGCUUCGUGCAC
As for B2, the binding signal in test [1] is 0.544 z-score; in test [2] it was -0.00593 z-score; in test [3], 0.265 z-score; in test [4] it was 0.685 z-score.

B3: hsa-mir-3910-1 (structured_RNA)
RNA: GGGAACCGGUGACCUGCCAGCGUAAAUUGGUGUACGAAGUUUCAGCCUUUUAUAUCAAGGCACAUAAAAGGCUGAAGCUUCGUGCAC
In the case of B3, the binding signal in test [1] is 2.13 z-score; in test [2] it was -0.281 z-score; in test [3], -0.316 z-score; in test [4], -0.268 z-score.

B4: hsa-mir-3161 (structured_RNA)
RNA: GGGAACGCCGGUUAACUGGUGUAGACGAGGUGUACGAAGUUUCAGCGAUUGAAGUUGAAUAGUGCGCUGAAGCUUCGUGCAC
Regarding B4, the binding signal is 0.544 z-score in test [1], 0.139 z-score in test [2], 0.0215 z-score in test [3] and -0.335 z-score in test [4].

B5: hsa-mir-5091 (structured_RNA)
RNA: GGGAAUAUAAAGGCUCAGCGGAGUGUACGGUGUACGAAGUUUCAGCGCUGGUCGCGGGUUGUGGGGUUUAGGUCACCGGCGCUGAAGCUUCGUGCAC
On to B5, for which the binding signal was determined as 0.541 z-score in test [1], 2.68 z-score in test [2], 1.65 z-score in test [3] and 5.17 z-score in test [4].

B6: hsa-mir-1252 (structured_RNA)
RNA: GGGAACGCCUUACGGAUCACAAGUUUUCGGUGUACGAAGUUUCAGCUUUAGAAAAGAGAAUUCCAAAGCUGAAGCUUCGUGCAC
As for B6, the binding signal is 0.558 z-score in test [1], -0.751 z-score in test [2], 0.765 z-score in test [3] and 0.388 z-score in test [4].

B7: hsa-mir-6730 (structured_RNA)
RNA: GGGAACCACGCUGAAGGCUAAUUGGAAAGGUGUACGAAGUUUCAGCCAGAGCUGCAGCUGCUCCACCCUGGCUGAAGCUUCGUGCAC
For the molecule B7, the binding signal stood at 0.57 z-score in test [1], 0.97 z-score in test [2], 1.35 z-score in test [3] and 0.646 z-score in test [4].

B8: hsa-mir-196a-2 (structured_RNA)
RNA: GGGAGUAGCACGUCCCUCACCUAGACGAGGUGUACGAAGUUUCAGCGUUGGGAUUGAGUUUUGAACUCGGCGCUGAAGCUUCGUGCAC
With B8, the binding signal was 0.543 z-score in test [1], -0.318 z-score in test [2], 1.03 z-score in test [3] and -0.277 z-score in test [4].

B9: hsa-mir-6133 (structured_RNA)
RNA: GGGAAAGGUACAACUGGCCACCCUACGGGGUGUACGAAGUUUCAGCUUCUGCUGAAGACUGGUCUCUUCAUGUGUGAGGCUGAAGCUUCGUGCAC
For B9, the binding signal is 0.552 z-score in test [1], -0.583 z-score in test [2], -1.31 z-score in test [3] and -0.612 z-score in test [4].

B10: hsa-let-7a-3 (structured_RNA)
RNA: GGGAUCGACAAUGCGUUGCACACGUUGCGGUGUACGAAGUUUCAGCAUAGUUUGGGGCUCUGCCCUGCUAUGGGAUAACUAUGCUGAAGCUUCGUGCAC
As for B10, the binding signal in test [1] is 0.531 z-score; in test [2], 0.158 z-score; in test [3], -0.404 z-score; in test [4], -0.313 z-score.

B11: hsa-mir-4296 (structured_RNA)
RNA: GGGAAGGUCAGGCUUGUUAGGAAUCAUAGGUGUACGAAGUUUCAGCCUCAGAGGGCUGAAGUGGUUGUGGGGAGGGGCUUCUGGGGCUGAAGCUUCGUGCAC
In the case of B11, the binding signal in test [1] came out at 0.553 z-score; in test [2], 2.73 z-score; in test [3] it was 1.75 z-score; in test [4] it was 5.76 z-score.

B12: hsa-mir-601 (structured_RNA)
RNA: GGGAGAGUUUUGAGCGAAAUCAACGGAAGGUGUACGAAGUUUCAGCGAGUCAGAAAAACUACGCUGAAGCUUCGUGCAC
Turning to B12, the binding signal in test [1] is 0.537 z-score; in test [2], 0.435 z-score; in test [3] it was 0.744 z-score; in test [4], 0.642 z-score.

B13: hsa-mir-218-2 (structured_RNA)
RNA: GGGACACGAGGACGACUGUAUCCUUAGGGGUGUACGAAGUUUCAGCCAUGUGGUGGAACGAUGGAAACGGAACAUGGCUGAAGCUUCGUGCAC
On to B13, for which the binding signal is 0.537 z-score in test [1], 0.698 z-score in test [2], 0.111 z-score in test [3] and 1.19 z-score in test [4].

B14: hsa-mir-4271 (structured_RNA)
RNA: GGGAAAGAGUAUCAUAGGGCAUACGUACGGUGUACGAAGUUUCAGCCCUGCAGCCCCCAGGUGGGGGGGCUGAAGCUUCGUGCAC
As to B14, the binding signal is 2.16 z-score in test [1], -0.561 z-score in test [2], -0.0838 z-score in test [3] and -0.523 z-score in test [4].

B15: hsa-mir-3200 (structured_RNA)
RNA: GGGACCCGAACGCAAGAGGAUUAACUUCGGUGUACGAAGUUUCAGCAGGUUUGUGUCCAAUACAGUCCACACCUGCUGAAGCUUCGUGCAC
In the case of B15, the binding signal in test [1] is 0.559 z-score; in test [2] it was 0.248 z-score; in test [3] it was -0.191 z-score; in test [4] it was 0.366 z-score.

B16: hsa-mir-7703 (structured_RNA)
RNA: GGGAGCAGCGCUCAAAGGAACUAAGAUCGGUGUACGAAGUUUCAGCGGGGGCAGGCAGGGGAUUGGCUAAGAACCUGACUCUUGCGCUGAAGCUUCGUGCAC
Consider B16, for which the binding signal in test [1] is 0.533 z-score; in test [2] it was -0.547 z-score; in test [3], 0.785 z-score; in test [4], 2.59 z-score.

B17: hsa-mir-7852 (structured_RNA)
RNA: GGGAACACUGUACUAUGACCGUCAGCCAGGUGUACGAAGUUUCAGCCAUACAUAUGCCUACUACUACUUUCAUAUGUAGGCAUAUGUAUGGCUGAAGCUUCGUGCAC
In the case of B17, the binding signal in test [1] was 0.535 z-score; in test [2] it was -0.295 z-score; in test [3], 1.07 z-score; in test [4] it was 0.52 z-score.

B18: hsa-mir-4637 (structured_RNA)
RNA: GGGAACUGCUAGUGGACGCAGAAGCUACGGUGUACGAAGUUUCAGCAGUAUUUUAAUCAUAGAUUGUAUUUAGUUAGUUUUUAAUACUGCUGAAGCUUCGUGCAC
With B18, the binding signal in test [1] was 0.539 z-score; in test [2], 0.0946 z-score; in test [3], 0.474 z-score; in test [4], -0.262 z-score.

B19: hsa-mir-595 (structured_RNA)
RNA: GGGAAACCGUAUGGCAGAUAGCUUAAGCGGUGUACGAAGUUUCAGCCUCAAUGUAGUCUUGUAAGGAACAGGUUGAAGGCUGAAGCUUCGUGCAC
As for B19, the binding signal in test [1] was 0.545 z-score; in test [2], -0.247 z-score; in test [3] it was -1.25 z-score; in test [4] it was -0.799 z-score.

B20: hsa-mir-3616 (structured_RNA)
RNA: GGGCGCUGUAUAAUCAUGCAGAUACAAGGGUGUACGAAGUUUCAGCCUCAUGAUAUGUUUGCCCCAUCAGCGUGUCACGAGGCUGAAGCUUCGUGCAC
Regarding B20, the binding signal is 0.558 z-score in test [1], 1.36 z-score in test [2], -0.288 z-score in test [3] and -0.0611 z-score in test [4].

B21: hsa-mir-1278 (structured_RNA)
RNA: GGGAAGGUCCUUCAUAGGAGAAGACCCAGGUGUACGAAGUUUCAGCACUCCCAGAACUCAUUAAGUUGGUAGUGCUGAAGCUUCGUGCAC
On to B21, for which the binding signal was 0.562 z-score in test [1], -1.26 z-score in test [2], -0.0859 z-score in test [3] and -1.04 z-score in test [4].

B22: hsa-mir-487b (structured_RNA)
RNA: GGGAAAACUGUGACGGCCAAGCUCAUACGGUGUACGAAGUUUCAGCUGUUCGUUUUGCUCAUGUCGAAUCGCUGAAGCUUCGUGCAC
As to B22, the binding signal in test [1] was 0.542 z-score; in test [2] it was -0.292 z-score; in test [3] it was 1.28 z-score; in test [4], 0.396 z-score.

(Values after PMC7723054.)
